This note sets out measurements from US20100120063A1, “GPCR Arrestin Assays” (DISCOVERX CORPORATION, priority 2008, published 2010).

The chains behind the UniProt entries cited, without tags or fusion partners. A line that says so, or that is headed by a name, gives the form on record, which may keep a tag or linker.
UniProt P41143, with tags, fused parts or gaps: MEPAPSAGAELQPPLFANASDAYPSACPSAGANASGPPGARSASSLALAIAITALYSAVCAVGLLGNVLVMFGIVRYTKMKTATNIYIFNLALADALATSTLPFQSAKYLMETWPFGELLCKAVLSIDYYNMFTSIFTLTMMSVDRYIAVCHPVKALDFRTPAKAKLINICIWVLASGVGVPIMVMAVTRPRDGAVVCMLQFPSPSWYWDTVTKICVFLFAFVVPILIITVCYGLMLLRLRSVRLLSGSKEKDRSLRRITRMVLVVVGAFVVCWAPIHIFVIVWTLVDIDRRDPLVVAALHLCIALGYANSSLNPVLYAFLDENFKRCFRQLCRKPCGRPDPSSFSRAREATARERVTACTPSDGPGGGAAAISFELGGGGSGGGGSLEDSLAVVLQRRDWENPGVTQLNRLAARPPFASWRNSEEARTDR
UniProt P35372, whole entry: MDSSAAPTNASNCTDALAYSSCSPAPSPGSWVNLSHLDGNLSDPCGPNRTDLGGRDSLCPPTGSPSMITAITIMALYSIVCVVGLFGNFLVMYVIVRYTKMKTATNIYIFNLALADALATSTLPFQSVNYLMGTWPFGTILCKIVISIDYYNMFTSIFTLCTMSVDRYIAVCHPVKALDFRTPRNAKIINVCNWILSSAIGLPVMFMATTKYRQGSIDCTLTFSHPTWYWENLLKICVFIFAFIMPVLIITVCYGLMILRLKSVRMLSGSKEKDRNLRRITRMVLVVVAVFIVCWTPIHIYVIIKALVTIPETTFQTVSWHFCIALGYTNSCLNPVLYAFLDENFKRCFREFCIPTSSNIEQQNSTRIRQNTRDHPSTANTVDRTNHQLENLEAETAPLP

For one test, the target named is T1, OPRD1-PK (Homo sapiens, UniProt P41143).
T1 construct: cloning junction ISFEL + gly-ser linker […]; PK1 (mutated ED, H to R); expressed in transfected cells; host or cells: CHO
In words: Arrestin-EA EFC agonist assay, CHO cells expressing OPRD1-PK (FIG. 12A). Type of test: cell-based.

Another test deals with T2, OPRM1-PK (Homo sapiens, UniProt P35372).
T2 construct: PK (beta-galactosidase ED); expressed in transfected cells; host or cells: U2OS
In words: Arrestin-EA EFC agonist assay, U2OS cells expressing OPRM1-PK only. It counts as cell-based.

Broadly, the EC50 is the concentration needed to bring the measured effect to its halfway point. Higher therefore signals lower potency in that assay. Turning to `C[C@@H](NC(=O)[C@@H](N)Cc1ccc(O)cc1)C(=O)NCC(=O)N(C)[C@@H](Cc1ccccc1)C(=O)NCCO` [DAMAGO, [D-Ala2,N-Me-Phe4,Gly5-ol]-enkephalin], the EC50 at OPRD1-PK was 36.4 µM. This lies in the double-digit micromolar range.
Turning to `CC(C)C[C@@H](NC(=O)[C@H](Cc1ccccc1)NC(=O)CNC(=O)[C@@H](C)NC(=O)[C@@H](N)Cc1ccc(O)cc1)C(=O)O` [DADLE], it took 0.111 µM to reach a half-maximal effect at OPRM1-PK (EC50).
